Data taken from US5366975A, “Invertebrate phenylethanolamine transporter and the use thereof” (priority 1992, dated 1994).

Tested on: tobacco hornworms (Manducca sexta)
Assay: Antifeeding assay on sprayed tomato leaves
Type: in vivo, Manduca sexta

**Q.** How did the “RANK ORDER ANTIFEEDING EFFECT IN MANDUCA” value (Table 1, rank order of potency) turn out when CCN(CCCl)Cc1ccccc1C was run?
**A.** GBR > COC = DMI = AMT > DSP = XYL =

**Q.** What about the “% leaf remaining” value (high (approximately 1-3%) concentrations, tomato leaves, M. sexta larvae) of the same compound?
**A.** 100%
